LogPoct data for four compounds are collected here from patent US20040175401A1, “Enhanced parmacokinetic profile of hydrophobic substances” (priority 2001, published 2004).

The data set can be described thus: n-octanol/water partition coefficient LogPoct calculated from solubility data. The following applies: calculated as logPoct = (0.99 - logSw)/1.34.
For `CCCCC(=O)OCN1C(=O)NC(c2ccccc2)(c2ccccc2)C1=O` [3-pentanoyloxymethyl-5,5-diphenylhydantoin], the LogPoct is reported as 4.23. Take `O=C1NC(=O)C2(CCCCCC2)C(=O)N1` [5,5-CH2)6-barbituric acid]: the LogPoct is 3.10. Consider `C=CCC1(C(C)C)C(=O)NC(=O)NC1=O` [5-iPr-5-allyl-barbituric acid], for which the LogPoct is given as 2.01. Consider `CC(=O)/C=C/C1C(C)=CCCC1(C)C` (stereo not shown) [a-ionone], for which the LogPoct is 3.02.
